Assay results reported in US20240226072A1 (Stichting Het Nederlands Kanker Instituut, priority 2022, published 2024).

What was measured:
[1] = Plasma pharmacokinetics and tissue distribution 2 h after oral cabazitaxel 10 mg/kg with vehicle or 25 mg/kg ritonavir in wild-type, Oatp1a/1b−/−, Oatp1a/1b/2b1−/−, OATP1B1- and OATP1B3-transgenic mice; assay type: in vivo; details: cabazitaxel 10 mg/kg oral, vs wild-type vehicle; for Fold change Pbrain (h^−1): ritonavir 25 mg/kg oral
Experimental: All animals were fasted 2 to 3 hours prior to the start of the experiment to minimize variation in absorption after oral administration. […] Subsequently, cardiac puncture was performed with a heparinized needle and syringe collecting a final blood sample. […] All samples were stored at −30° C. until analysis.
Differences were considered statistically significant when P<0.05. All data are presented as geometric mean±SD.

[2] = male, Cyp3aXAV (human CYP3A in Cyp3a−/−, FVB background), mouse, in vivo, po, 10 mg/kg
Experimental: The Jevtana (10 mg/mL) solution contains 0.26 mg/mL polysorbate 80 and 15% (w/v) ethanol, and is adjusted to pH 2-6 with citric acid. […] The stock solution was further diluted 5-fold with water to reach a 2.5 mg/mL dosing solution for oral administration. The vehicle solution only consists of polysorbate 80, ethanol and water (1:1:8, v/v/v). […] All dosing solutions were prepared freshly on the day of the experiment.
At the termination time point of 24 hours, mice were anesthetized using an isoflurane evaporator with 3% isoflurane with 0.8 L/min air and 0.3 L/min oxygen. A final blood sample was taken using cardiac puncture, using Eppendorf tubes previously prepared with heparin as an anticoagulant. Subsequently, the anesthetized mice were sacrificed by cervical dislocation and the tissues of interest were collected. Brain, liver, spleen, kidney, small intestine, and testis were collected. […]
Pharmacokinetic parameters were estimated by non-compartmental analysis using the software package of PK solutions 2.0.2 (SUMMIT, Research Service). The area under the curve (AUC) of the plasma-concentration time curve for all the compounds was calculated using the linear trapezoidal rule without extrapolating to infinity. […] The statistics for the comparison of multiple groups were calculated with the one-way analysis of variance (ANOVA), whereas Sidak's post hoc correction was performed. […]

CO[C@H]1C(=O)[C@]2(C)[C@@H](OC)C[C@H]3OC[C@@]3(OC(C)=O)[C@H]2[C@H](OC(=O)c2ccccc2)[C@]2(O)C[C@H](OC(=O)[C@H](O)[C@@H](NC(=O)OC(C)(C)C)c3ccccc3)C(C)=C1C2(C)C [cabazitaxel]
Fold change Pbrain (h^−1) ([1]; OATP1B1-transgenic mice): 2.38
Fold change Pbrain (h^−1) ([1]; Oatp1a/1b/2b1−/− mice): 2.23
Fold change Cliver ([1]; Oatp1a/1b−/− mice, vehicle): 1.02
AUC0-24 h [2]: 1.241 µM·h
